Experimental data published in PubChem BioAssay AID1778 (Sanford-Burnham Center for Chemical Genomics, 2009).
This is one part of the list. Entries with a potency or affinity are not part of this list. Active and inactive are the calls of the source. Cut-off read from the data, not from the text of the source: active = inhibition above about 50%; inactive = the rest.

By UniProt entry, the sequences of proteins in these tests, tags left out. Where a name states a change or a piece, a line headed by the entry shows the natural chain unless it says otherwise.
UniProt P41145: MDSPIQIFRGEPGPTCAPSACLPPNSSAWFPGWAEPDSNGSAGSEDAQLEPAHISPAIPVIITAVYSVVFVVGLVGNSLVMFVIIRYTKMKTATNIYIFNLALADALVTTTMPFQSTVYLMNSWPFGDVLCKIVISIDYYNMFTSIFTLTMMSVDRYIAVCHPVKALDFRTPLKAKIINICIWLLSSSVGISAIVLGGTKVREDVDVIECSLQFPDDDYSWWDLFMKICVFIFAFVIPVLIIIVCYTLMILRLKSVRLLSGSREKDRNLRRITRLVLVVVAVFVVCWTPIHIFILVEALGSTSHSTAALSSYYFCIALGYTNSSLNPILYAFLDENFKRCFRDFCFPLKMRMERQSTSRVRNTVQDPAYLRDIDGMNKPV

Biological target: Kappa-type opioid receptor (Homo sapiens) (UniProt P41145)
Experiment: KOR antagonists, beta-arrestin recruitment, cell-based, luminescence, uHTS (AID 1778)
Settings: antagonist mode, at 10 µM, stronger effect = higher value

Row | Structure (SMILES) | inhibition
1 | Cn1c(=O)c2ncn(CC(=O)Nc3nc(-c4ccc(Cl)cc4)cs3)c2n(C)c1=O | inactive: 2.8%
2 | CCCCc1nc2ccccc2n1CC(=O)NN | inactive: 7.6%
3 | c1ccc(CN2CCC(Nc3ncnc4sccc34)CC2)cc1 | inactive: 3.9%
4 | CC(C)(C)C(=O)NC(Sc1ccncn1)C(Cl)(Cl)Cl (stereo not drawn) | inactive: 10.1%
5 | CCN(Cc1ccccc1)C(=O)Cn1c(C(C)O)nc2ccccc21 (stereo not drawn) | inactive: -44.4%
6 | Cn1c(=O)c2c(ncn2CC(=O)NC(C)(C)C)n(C)c1=O | inactive: 0.4%
7 | Cn1c(=O)c2c(ncn2CC(=O)Nc2ccc(N3CCOCC3)cc2)n(C)c1=O | inactive: 40.8%
8 | CSc1nc2ccccc2n1CC(=O)N1CCCCC1 | inactive: -8.5%
9 | CC(C)OC(=O)c1ccc(NC(=O)Cn2c(-c3nonc3N)nc3ccccc32)cc1 | inactive: -19.5%
10 | Cc1nn(CC(=O)Nc2ccc3c(c2)nc2n3CCN(C3CCCCC3)C2)c(=O)c2ccccc12 | inactive: -24.8%
11 | Cc1noc(C)c1S(=O)(=O)N(CC(=O)N1CCn2c1nc1ccccc12)c1ccc(C(C)C)cc1 | inactive: 46.1%
12 | O=[N+]([O-])c1ccc(NC2CCN(Cc3ccccc3)CC2)c2ccncc12 | inactive: -16.5%
13 | CCOC(=O)N1CCN(c2c(NC3CCN(Cc4ccccc4)CC3)c(=O)c2=O)CC1 | inactive: -22.2%
14 | CC(C)Sc1nc2ccccc2n1CC(N)=O | inactive: 22.2%
15 | O=C(Cn1cnc2ccccc21)N1CCN(S(=O)(=O)c2ccccc2)CC1 | inactive: -0.2%
16 | CN(C)C1(c2nnnn2-c2ccc(Cl)cc2)CCCCC1 | inactive: 20.2%
17 | COC(=O)c1ccc(N2C(=O)CC(N3CCC(n4c(=O)[nH]c5ccccc54)CC3)C2=O)cc1 (stereo not drawn) | inactive: 23.3%
18 | COc1cccc(NC(=O)Cn2c(-c3cncs3)nc3ccccc32)c1 | inactive: 7.9%
19 | COc1cccc(CNC(=O)CCNC(=O)N2CCn3c2nc2ccccc23)c1 | inactive: -8.3%
20 | O=C1CCC(=O)N1c1ccc(NC2CCN(Cc3ccccc3)CC2)c([N+](=O)[O-])c1 | inactive: 20.9%

Row | Structure (SMILES) | inhibition
21 | O=C(c1ccccc1Br)N1CCn2c1nc1ccccc12 | inactive: -2.8%
22 | Cc1cccc(NC(=O)Cn2c(/C=C/c3ccccc3)nc3ccccc32)c1 | inactive: -23%
23 | O=C(O)CNc1ccc([As](=O)(O)O)cc1 | inactive: 22.2%
24 | O=S(=O)(Cc1ccccc1)N1CCn2c(nc3ccccc32)C1 | inactive: -9.6%
25 | CCN(CC)S(=O)(=O)c1ccc(NC2CCN(Cc3ccccc3)CC2)nc1 | inactive: -18.3%
26 | CC1CCCN(Cc2nc3c(c(=O)n(C)c(=O)n3C)n2CC(N)=O)C1 (stereo not drawn) | inactive: 5.4%
27 | CN1CCN(c2nc3c(c(=O)n(C)c(=O)n3C)n2CC(N)=O)CC1 | inactive: -49.6%
28 | CN1CCC2(CC1)NC(=O)c1ccccc1N2 | inactive: -30.2%
29 | O=[N+]([O-])c1cccc(NC2=NCC(CBr)S2)c1 (stereo not drawn) | inactive: 20.8%
30 | COc1ccc(Cc2nc3ccccc3n2CC(=O)N/N=C/c2ccc(O)cc2)cc1OC | inactive: -6.1%
31 | Cc1ccc2c(c1)C1CN(C)CCC1N2C(=O)COc1ccccc1F (stereo not drawn) | inactive: 2.7%
32 | CCOC(=O)Nc1ccc([As](=O)(O)O)c(O)c1 | inactive: 11.4%
33 | Nc1ncnc2c1ncn2CCNCCc1ccccc1 | inactive: 6.5%
34 | O=C(Cn1c(C(F)(F)F)nc2ccccc21)NCCCN1CCOCC1 | inactive: -17.2%
35 | COc1ccc(S(=O)(=O)N2CCn3c2nc2ccccc23)cc1 | inactive: 15.2%
36 | Cc1ccc(N(CC(=O)N2CCn3c2nc2ccccc23)S(=O)(=O)c2c(C)n[nH]c2C)cc1 | inactive: 4.1%
37 | CC(C)C[C@H](NC(=O)N1CCn2c1nc1ccccc12)C(=O)NCCc1ccccc1 | inactive: -41.8%
38 | Cc1cc(C)cc(N(CC(=O)N2CCn3c2nc2ccccc23)S(=O)(=O)c2c(C)noc2C)c1 | inactive: -13%
39 | Cc1ccc2c(c1)C1CN(C)CCC1N2C(=O)c1cccs1 (stereo not drawn) | inactive: 21.2%
40 | Cc1ccc2c(c1)C1CN(C)CCC1N2C(=O)COc1ccc(N(C)C(=O)C(C)(C)C)cc1 (stereo not drawn) | inactive: 4.2%

Row | Structure (SMILES) | inhibition
41 | Nc1ncnc2c1ncn2CCN1CCOCC1 | inactive: 15.3%
42 | CC(C)[C@H](NC(=O)N1CCn2c1nc1ccccc12)C(=O)NC1CCCCC1 | inactive: -51.8%
43 | CCN(CC)CCNC(=S)N1CCn2c(nc3ccccc32)C1 | inactive: 28.6%
44 | CC1c2nc3ccccc3n2C(CC(=O)NCc2ccccn2)C(=O)N1Cc1ccccc1 (stereo not drawn) | inactive: 16.3%
45 | CC(=O)Nc1ccc(C(=O)CSc2nc3ccccc3n2CC(=O)N2CCCC2)cc1 | inactive: -11%
46 | CC(C)[C@H](NC(=O)N1CCn2c1nc1ccccc12)C(=O)N1CCCCC1 | inactive: -21.7%
47 | CCCNC(=O)CC1C(=O)N(Cc2ccccc2)C(C)c2nc3ccccc3n21 (stereo not drawn) | inactive: -8%
48 | COc1ccc(/C=N/c2nc3ccccc3n2CCN2CCCCC2)cc1OC | inactive: -30.9%
49 | CC(=O)Nc1ccc(NC(=O)Cn2c(CC(=O)N3CCCC3)nc3ccccc32)cc1 | inactive: 10%
50 | Cc1cc(SC(NC(=O)c2ccccc2)C(Cl)(Cl)Cl)nc(C(C)C)n1 (stereo not drawn) | inactive: -6.2%
51 | COc1ccc(OCC(=O)N2c3ccc(C)cc3C3CN(C)CCC32)cc1 (stereo not drawn) | inactive: -30.7%
52 | O=C(CCCCCNC(=O)N1CCn2c1nc1ccccc12)NCCc1ccccc1 | inactive: -37.9%
53 | Cc1ccc2c(c1)[C@@H]1CN(C)CC[C@@H]1N2S(=O)(=O)c1ccc([N+](=O)[O-])cc1 | inactive: -6.5%
54 | Cn1c(=O)c2c(ncn2CC(=O)N2CCc3ccccc3C2)n(C)c1=O | inactive: 3.9%
55 | CCC[n+]1cn(/C(C(=S)Nc2cccc(Cl)c2C)=C(/[O-])c2ccc(OC)c(OC)c2)c2ccccc21 | inactive: 11.2%
56 | Cc1ccc(NC(=O)Cn2c(=S)[nH]c3ccccc32)cc1 | inactive: -27.4%
57 | Cn1c(=O)c2c(ncn2CC(=O)NCc2cccnc2)n(C)c1=O | inactive: 17%
58 | Cn1c(=O)[nH]c(=O)c2c1ncn2CCN1CCCCC1 | inactive: -20.7%
